Experimental data taken from publication PMC3805374 (Life sciences, 2013).

The chains behind the UniProt entries cited, without tags or fusion partners. Where a name states a change or a piece, a line headed by the entry shows the natural chain unless it says otherwise.
UniProt P18901, whole entry: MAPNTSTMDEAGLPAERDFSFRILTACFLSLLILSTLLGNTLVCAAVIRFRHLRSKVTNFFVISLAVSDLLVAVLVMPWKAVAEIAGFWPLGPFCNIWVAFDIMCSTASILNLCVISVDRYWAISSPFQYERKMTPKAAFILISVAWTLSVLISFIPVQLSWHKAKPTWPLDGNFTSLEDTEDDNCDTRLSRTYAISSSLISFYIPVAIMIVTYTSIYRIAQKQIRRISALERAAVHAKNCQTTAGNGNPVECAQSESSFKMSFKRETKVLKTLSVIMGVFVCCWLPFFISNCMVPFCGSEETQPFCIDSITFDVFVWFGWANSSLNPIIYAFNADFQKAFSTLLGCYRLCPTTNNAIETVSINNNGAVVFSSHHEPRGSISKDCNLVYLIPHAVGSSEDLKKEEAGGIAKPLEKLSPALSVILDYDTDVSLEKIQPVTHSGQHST

Columns and labels:
[1] = target: HA-rat D1 dopamine receptor (D1R) (Rattus norvegicus, UniProt P18901); test: Saturation binding of [3H]SCH23390 to the D1R in NG 108-15-HA-D1R cell membranes
HA-D1R = HA-D1R (Rattus norvegicus, UniProt P18901); format: binding; settings: CHO-FLAG-DOPR/HA-D1R

## CN1CCc2cc(Cl)c(O)cc2C(c2ccccc2)C1 (centres unmarked) [[^3H]SCH23390]
[1]
  Bmax of [3H]SCH23390 binding to the D1R: 180 ± 34 fmol/mg protein
HA-D1R
  Bmax of [3H]SCH23390 binding to the D1R: 2.17±0.14 pmol/mg protein
HA-D1R; control (vehicle pretreatment 30 min), Table 3
  Bmax of [3H]SCH23390 binding: 2.17 ± 0.14 fmol/mg protein
HA-D1R; pretreatment DPDPE 10 μM 30 min
  Bmax of [3H]SCH23390 binding: 2.04 ± 0.12 fmol/mg protein
HA-D1R; pretreatment SKF-82958 10 μM 30 min
  Bmax of [3H]SCH23390 binding: 2.54 ± 0.88 fmol/mg protein

Where two headings read alike, the source gives them in different places.
